Membrane permeability of cyclic peptides

PAMPA measures passive passage through an artificial lipid membrane. Values are log10 P with P in cm/s, so -5 is more permeable than -7.

| compound | PAMPA (log10 cm/s) |
|---|---|
| CC(=O)N1CCC[C@@H]1C(=O)N(C)[C@H](CC(C)C)C(=O)N[C@@H]1C(=O)N[C@@H](CC(C)C)C(=O)N[C@@H](CC(C)C)C(=O)N[C@@H](CC(C)C)C(=O)N(C)[C@@H](C)C(=O)N[C@H](CC(C)C)C(=O)N2CCC[C@@H]2C(=O)O[C@@H]1C | -6.66 |
| CC(=O)N1CCC[C@H]1C(=O)N(C)[C@@H](CC(C)C)C(=O)N[C@@H]1C(=O)N(C)[C@H](CC(C)C)C(=O)N[C@H](CC(C)C)C(=O)N(C)[C@@H](CC(C)C)C(=O)N(C)[C@@H](C)C(=O)N[C@@H](CC(C)C)C(=O)N2CCC[C@H]2C(=O)O[C@@H]1C | -5.31 |
| CC(=O)N1CCC[C@H]1C(=O)N(C)[C@H](CC(C)C)C(=O)N[C@@H]1C(=O)N(C)[C@H](CC(C)C)C(=O)N(C)[C@H](CC(C)C)C(=O)N[C@H](CC(C)C)C(=O)N(C)[C@@H](C)C(=O)N[C@@H](CC(C)C)C(=O)N2CCC[C@@H]2C(=O)O[C@@H]1C | -5.98 |
| CC(=O)N1CCC[C@H]1C(=O)N(C)[C@@H](CC(C)C)C(=O)N[C@@H]1C(=O)N[C@@H](CC(C)C)C(=O)N(C)[C@H](CC(C)C)C(=O)N(C)[C@H](CC(C)C)C(=O)N[C@H](C)C(=O)N[C@H](CC(C)C)C(=O)N2CCC[C@@H]2C(=O)O[C@@H]1C | -6.85 |
| CC(=O)N1CCC[C@H]1C(=O)N[C@@H]1C(=O)N[C@H](CC(C)C)C(=O)N[C@H](CC(C)C)C(=O)N(C)[C@H](CC(C)C)C(=O)N(C)[C@@H](CC(C)C)C(=O)N(C)[C@@H](C)C(=O)N[C@@H](CC(C)C)C(=O)N2CCC[C@@H]2C(=O)O[C@@H]1C | -5.74 |
| CC(=O)N1CCC[C@H]1C(=O)N(C)[C@H](CC(C)C)C(=O)N[C@@H]1C(=O)N[C@@H](CC(C)C)C(=O)N[C@@H](CC(C)C)C(=O)N[C@@H](CC(C)C)C(=O)N(C)[C@@H](C)C(=O)N[C@@H](CC(C)C)C(=O)N2CCC[C@H]2C(=O)O[C@@H]1C | -6.65 |
| CC(=O)N1CCC[C@H]1C(=O)N(C)[C@H](CC(C)C)C(=O)N[C@@H]1C(=O)N(C)[C@H](CC(C)C)C(=O)N[C@H](CC(C)C)C(=O)N[C@H](CC(C)C)C(=O)N[C@H](C)C(=O)N[C@H](CC(C)C)C(=O)N2CCC[C@@H]2C(=O)O[C@@H]1C | -6.83 |
| CC(=O)N1CCC[C@@H]1C(=O)N(C)[C@@H](CC(C)C)C(=O)N[C@@H]1C(=O)N[C@@H](CC(C)C)C(=O)N[C@H](CC(C)C)C(=O)N(C)[C@@H](CC(C)C)C(=O)N(C)[C@@H](C)C(=O)N[C@H](CC(C)C)C(=O)N2CCC[C@H]2C(=O)O[C@@H]1C | -6.24 |
| CC(=O)N1CCC[C@@H]1C(=O)N(C)[C@H](CC(C)C)C(=O)N[C@@H]1C(=O)N(C)[C@@H](CC(C)C)C(=O)N(C)[C@H](CC(C)C)C(=O)N(C)[C@H](CC(C)C)C(=O)N(C)[C@H](C)C(=O)N[C@H](CC(C)C)C(=O)N2CCC[C@@H]2C(=O)O[C@@H]1C | -5.28 |
| CC(=O)N1CCC[C@@H]1C(=O)N(C)[C@@H](CC(C)C)C(=O)N[C@@H]1C(=O)N[C@H](CC(C)C)C(=O)N(C)[C@H](CC(C)C)C(=O)N(C)[C@@H](CC(C)C)C(=O)N(C)[C@@H](C)C(=O)N[C@@H](CC(C)C)C(=O)N2CCC[C@H]2C(=O)O[C@@H]1C | -5.30 |
| CC(=O)N1CCC[C@@H]1C(=O)N(C)[C@H](CC(C)C)C(=O)N[C@@H]1C(=O)N(C)[C@H](CC(C)C)C(=O)N(C)[C@H](CC(C)C)C(=O)N[C@H](CC(C)C)C(=O)N(C)[C@H](C)C(=O)N[C@@H](CC(C)C)C(=O)N2CCC[C@H]2C(=O)O[C@@H]1C | -5.09 |
| CC(=O)N1CCC[C@H]1C(=O)N(C)[C@H](CC(C)C)C(=O)N[C@@H]1C(=O)N(C)[C@@H](CC(C)C)C(=O)N(C)[C@@H](CC(C)C)C(=O)N[C@H](CC(C)C)C(=O)N(C)[C@H](C)C(=O)N[C@H](CC(C)C)C(=O)N2CCC[C@@H]2C(=O)O[C@@H]1C | -5.73 |
| CC(=O)N1CCC[C@H]1C(=O)N(C)[C@@H](CC(C)C)C(=O)N[C@@H]1C(=O)N[C@H](CC(C)C)C(=O)N(C)[C@@H](CC(C)C)C(=O)N(C)[C@H](CC(C)C)C(=O)N(C)[C@H](C)C(=O)N[C@@H](CC(C)C)C(=O)N2CCC[C@H]2C(=O)O[C@@H]1C | -5.40 |
| CC(=O)N1CCC[C@H]1C(=O)N[C@@H]1C(=O)N[C@H](CC(C)C)C(=O)N(C)[C@@H](CC(C)C)C(=O)N[C@@H](CC(C)C)C(=O)N(C)[C@H](CC(C)C)C(=O)N[C@H](C)C(=O)N[C@@H](CC(C)C)C(=O)N2CCC[C@@H]2C(=O)O[C@@H]1C | -5.25 |
| CC(=O)N1CCC[C@@H]1C(=O)N(C)[C@@H](CC(C)C)C(=O)N[C@@H]1C(=O)N(C)[C@H](CC(C)C)C(=O)N(C)[C@H](CC(C)C)C(=O)N[C@H](CC(C)C)C(=O)N(C)[C@H](C)C(=O)N[C@H](CC(C)C)C(=O)N2CCC[C@@H]2C(=O)O[C@@H]1C | -5.66 |

Again, the 2 entries with the lowest PAMPA:

| compound | PAMPA (log10 cm/s) |
|---|---|
| CC(=O)N1CCC[C@H]1C(=O)N(C)[C@@H](CC(C)C)C(=O)N[C@@H]1C(=O)N[C@@H](CC(C)C)C(=O)N(C)[C@H](CC(C)C)C(=O)N(C)[C@H](CC(C)C)C(=O)N[C@H](C)C(=O)N[C@H](CC(C)C)C(=O)N2CCC[C@@H]2C(=O)O[C@@H]1C | -6.85 |
| CC(=O)N1CCC[C@H]1C(=O)N(C)[C@H](CC(C)C)C(=O)N[C@@H]1C(=O)N(C)[C@H](CC(C)C)C(=O)N[C@H](CC(C)C)C(=O)N[C@H](CC(C)C)C(=O)N[C@H](C)C(=O)N[C@H](CC(C)C)C(=O)N2CCC[C@@H]2C(=O)O[C@@H]1C | -6.83 |

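The data file gives no further conditions (lipid, pH, time, direction or concentration), and values from different papers need not be comparable. Other peptides of the study may be missing here. Peptides that the database sets to -10, its floor, are left out.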

Values of Kelly et al. 2021, doi:10.1021/jacs.0c06115, as listed in CycPeptMPDB.